{
  "sequences": {"note": "The chains behind the UniProt entries cited, without tags or fusion partners.", "UniProt P41143, whole entry": "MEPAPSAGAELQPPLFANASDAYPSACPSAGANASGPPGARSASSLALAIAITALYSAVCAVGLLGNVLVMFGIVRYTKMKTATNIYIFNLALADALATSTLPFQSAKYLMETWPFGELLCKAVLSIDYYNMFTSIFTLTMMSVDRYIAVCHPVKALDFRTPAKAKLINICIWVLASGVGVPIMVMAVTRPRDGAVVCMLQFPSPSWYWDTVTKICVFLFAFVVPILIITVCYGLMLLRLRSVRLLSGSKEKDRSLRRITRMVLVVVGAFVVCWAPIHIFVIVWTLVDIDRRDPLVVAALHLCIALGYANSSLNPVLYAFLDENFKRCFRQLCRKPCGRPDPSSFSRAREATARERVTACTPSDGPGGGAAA"},
  "source": "paper PMC6838683",
  "about": "“Discovery of Human Signaling Systems: Pairing Peptides to G Protein-Coupled Receptors” (Cell, 2019)",
  "key": {"[1]": {"molecular_target": "T1, OPRD1 (Homo sapiens, UniProt P41143)", "T1 construct": "host or cells: HTLA cells (HEK293-derived)", "experiment": "β-arrestin recruitment (Tango), known peptide receptors", "type": "cell-based", "settings": "endogenous ligand(s) included in peptide library", "text": "Supplement mmc6.xlsx, sheet \"Peptide GPCR controls\" | column: Confirmed?"}, "[2]": {"system": "human GPCRs", "design": "method as in Guide to Pharmacology database", "settings": "max reported value, ref Guide to Pharmacology database, cited from earlier work", "text": "Supplement mmc1.xlsx, sheet \"HumanGPCRLigands\" | column: pKi_value; pKd_value; pEC50_value; pIC50_value"}, "[3]": {"settings": "receptor LHCGR (lshr_human, P22888)"}},
  "data": [
    {"molecule": "Beta-endorphin", "values": [
      {"measurement": "Confirmed? (confirmation of b-arrestin recruitment)", "setting": "[1]", "value": "No"}
    ]},
    {"molecule": "LH", "values": [
      {"measurement": "pIC50_value", "setting": "[2]; [3]", "value": 10.9}
    ]},
    {"molecule": "CC(=O)OCC[N+](C)(C)C", "note": "[acetylcholine]", "values": [
      {"measurement": "pKi_value", "setting": "[2]; receptor acm1_human (CHRM1, P11229)", "value": 4.9}
    ]},
    {"molecule": "α-CGRP", "values": [
      {"measurement": "pEC50_value", "setting": "[2]; receptor calcr_human (CALCR), Calcitonin receptors, Class B1 (Secretin)", "value": 8.4}
    ]},
    {"molecule": "hCG", "values": [
      {"measurement": "pKd_value", "setting": "[2]; [3]", "value": 11.8}
    ]}
  ]
}
